{"source": "paper PMC7375689", "about": "(Leukemia & lymphoma, 2020)", "assay": "Plasma pharmacokinetics of AR-42 in AML patients", "assay_type": "in vivo, human", "details": "day 5", "data": [{"substance": "AR-42", "values": [{"measurement": "fold increase in AUC between the 20 and 40 mg dose levels", "value": 1.7, "unit": "fold"}, {"measurement": "fold increase in Cmax between the 20 and 40 mg dose levels", "value": 2.4, "unit": "fold"}]}]}
